PMC12087695, “A Phenotyping Tool for Seven Cytochrome P450 Enzymes and Two Transporters: Application to Examine the Effects of Clopidogrel and Gemfibrozil” (Clinical Pharmacology and Therapeutics, 2025)

Assay: Plasma pharmacokinetics of cocktail index drugs and their metabolites, five-phase crossover trial;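 note: parameters derived from plasma drug levels quantified by LC–MS with internal standards after acetonitrile protein precipitation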
Conditions: phase IV: clopidogrel 300 mg pretreatment + full cocktail

Q: For `COc1ccc2[nH]c([S+]([O-])Cc3ncc(C)c(OC)c3C)nc2c1` (stereo not shown) [Omeprazole, omeprazole], which “Tmax, median (range)” value is on record?
A: 1.5 (1.0-3.0) h
